Target: Wild-type CXCL12 (CXCL12α) (Homo sapiens (Human)) (UniProt P48061)
Assay: CXCL12 self-association with the sTyr21 sulfopeptide present against without it; method not named

Protein sequences, listed by entry. Tags and fused reporters are not part of them. Residues count along the entry.
UniProt P48061, 22-89 limits assumed: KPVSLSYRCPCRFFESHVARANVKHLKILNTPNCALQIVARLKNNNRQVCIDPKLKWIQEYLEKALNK

fold increase of CXCL12 dimerization affinity: 8 fold
Substance: Wild-type CXCL12 (CXCL12α) (from UniProt P48061 22-89) (ligand; other documents disagree on this pair)

Reference: patent publication US20190374607A1
